This passage reports Kd results from paper PMC9871890.

By UniProt entry, the sequences of proteins in these tests, tags left out. Residues count along the entry.
UniProt P02745, 23-245: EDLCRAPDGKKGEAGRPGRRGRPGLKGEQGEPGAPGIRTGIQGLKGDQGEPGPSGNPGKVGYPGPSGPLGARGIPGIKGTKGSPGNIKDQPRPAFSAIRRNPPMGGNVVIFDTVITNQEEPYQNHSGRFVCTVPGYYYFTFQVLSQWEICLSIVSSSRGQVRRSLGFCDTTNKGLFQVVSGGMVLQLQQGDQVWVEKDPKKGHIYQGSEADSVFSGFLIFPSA
human C1q (Native Human C1q protein, abcam), UniProt P02746, 28-253: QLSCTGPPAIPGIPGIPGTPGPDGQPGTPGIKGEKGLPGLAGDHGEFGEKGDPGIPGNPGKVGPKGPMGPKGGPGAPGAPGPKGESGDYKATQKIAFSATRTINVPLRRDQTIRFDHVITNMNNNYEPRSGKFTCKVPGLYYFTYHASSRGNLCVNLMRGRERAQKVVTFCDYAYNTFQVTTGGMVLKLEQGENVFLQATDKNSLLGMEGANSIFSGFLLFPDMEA
human C1q (Native Human C1q protein, abcam), UniProt P02747, 29-245: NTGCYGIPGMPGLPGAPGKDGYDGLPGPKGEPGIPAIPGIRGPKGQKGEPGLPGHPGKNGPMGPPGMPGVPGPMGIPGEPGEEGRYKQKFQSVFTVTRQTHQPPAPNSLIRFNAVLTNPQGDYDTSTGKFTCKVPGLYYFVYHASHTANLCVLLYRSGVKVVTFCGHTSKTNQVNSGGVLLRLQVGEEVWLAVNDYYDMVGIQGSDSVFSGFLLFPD

Broadly, the Kd is the free concentration of one partner at which half of the binding sites on the other are occupied at equilibrium, for simple one-to-one binding. A low value points to higher affinity.

For this test, the target named is anti-EGFR/HER2 bispecific antibody. As to the kind of experiment: SPR; Biacore T200, sandwich assay; BsAb (1 µg/mL) captured on a Protein L chip, C1q in 2-fold dilutions from 5 nM flowed over at 30 µL/min; HBS-EP pH 7.4. On the technique in general: Surface plasmon resonance follows binding to a sensor surface in real time, without labels.

Substance “human C1q (Native Human C1q protein, abcam) (from UniProt P02745 23-245; P02746 28-253; P02747 29-245) (complex)” showed a Kd of 6.4 nM.
